Assay results taken from US20230393120A1, “A HUMAN VASCULAR INJURY-ON-A-CHIP MODEL OF HEMOSTASIS” (THE TRUSTEES OF THE UNIVERSITY OF PENNSYLVANIA, priority 2020, published 2023).

Experiments:
[1] = system: tissue factor expression in endothelial cells (HUVECs); experiment: Endothelial tissue factor expression after TNF-α treatment (immunostaining, confocal); type: cell-based, human; conditions: overnight treatment with 1 ng/ml
Source text: (§1) The disclosed technique was further used to test whether the location of tissue factor influences the formation of competent hemostatic plugs in our system. A condition in which tissue factor was localized on the endothelial lining of the intravascular channel was created, rather than being embedded in the collagen matrix by treating the endothelium with tumor necrosis factor (TNF)-α, which is a known inducer of endothelial tissue factor expression. […] Bleeding caused by the puncture injury in this model triggered the hemostatic response and led to the aggregation of platelets at the injury site (FIG. 3F). […] The increased thrombotic activities can be explained by the high levels of tissue factor present on the TNF-α-treated endothelial surface.
Preparation of blood vessel-on-a-chip: Assembled devices were autoclaved for sterilization prior to cell culture. To increase the strength of interfacial adhesion between collagen gel and PDMS, dopamine hydrochloride (Sigma-Aldrich) solution (2.0 mg/mL w/v in 10 mM Tris-HCl buffer, pH 8.5) was injected into the middle compartment of the device and incubated for 2 hours at room temperature. Next, 6 mg/ml of rat-tail collagen type I containing 2.5% (v/v) lipidated tissue factor (Dade Innovin Reagent, Siemens) was introduced into the polydopamine-treated chamber and polymerized at 37° C. for 30 minutes. […]

[2] = system: platelet and fibrin accumulation at the injury site, human whole blood; experiment: Puncture injury in TNF-α-treated devices with tissue factor-free collagen gel, hemostatic response; type: cell-based; conditions: 1 ng/ml overnight, no tissue factor in collagen gel
Source text: as §1
Preparation of blood vessel-on-a-chip: Assembled devices were autoclaved for sterilization prior to cell culture. To increase the strength of interfacial adhesion between collagen gel and PDMS, dopamine hydrochloride (Sigma-Aldrich) solution (2.0 mg/mL w/v in 10 mM Tris-HCl buffer, pH 8.5) was injected into the middle compartment of the device and incubated for 2 hours at room temperature. […]
Fluorescently-labeled antibodies to CD61, P-selectin, and fibrin were added to the blood prior to perfusion through the microfluidic device to visualize platelet deposition, platelet activation, and fibrin accumulation. Different biomarkers of the hemostatic response, such as platelet accumulation and fibrin formation at the injury site, were monitored using real-time fluorescence imaging using the Zeiss Axio Zoom.V16, objective PlanNeoFluor Z 1.0×, with a total 75×, using the Axiocam 506 camera. […]
Measurement of sum and mean fluorescence intensity: For each image capture, 80 pm of the intravascular and extravascular side of the injury was analyzed—40 pm below the gel boundary and 40 pm above. […] The total intensity was quantified, and for P-selectin, the mean fluorescence intensity (MFI) within the platelet mask was calculated for the total volume that was analyzed. […]

What does the source list for tumor necrosis factor (TNF)-α [TNF-α]?
expression of tissue factor in the endothelial cells [1]: robust and widespread expression; formation of plugs sealing the opening of the injury [2]: failed to form plugs; deposition and activation of platelets ([2]; vs control without TNF-α): substantially increased; fibrin production and accumulation ([2]; vs control without TNF-α): more pronounced
